Measured values from ChEMBL document CHEMBL3286334.

The chains behind the UniProt entries cited, without tags or fusion partners.
UniProt P32245, whole entry: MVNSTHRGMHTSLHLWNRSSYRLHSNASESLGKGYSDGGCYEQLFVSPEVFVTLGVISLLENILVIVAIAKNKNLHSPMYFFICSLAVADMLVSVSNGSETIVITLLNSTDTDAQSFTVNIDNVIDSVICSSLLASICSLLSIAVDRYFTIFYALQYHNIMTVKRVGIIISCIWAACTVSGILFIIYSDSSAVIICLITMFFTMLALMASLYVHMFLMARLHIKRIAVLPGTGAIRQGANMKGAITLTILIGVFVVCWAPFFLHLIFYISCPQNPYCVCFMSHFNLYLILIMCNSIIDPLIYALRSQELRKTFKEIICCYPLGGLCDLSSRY
UniProt P32245, whole entry L106P: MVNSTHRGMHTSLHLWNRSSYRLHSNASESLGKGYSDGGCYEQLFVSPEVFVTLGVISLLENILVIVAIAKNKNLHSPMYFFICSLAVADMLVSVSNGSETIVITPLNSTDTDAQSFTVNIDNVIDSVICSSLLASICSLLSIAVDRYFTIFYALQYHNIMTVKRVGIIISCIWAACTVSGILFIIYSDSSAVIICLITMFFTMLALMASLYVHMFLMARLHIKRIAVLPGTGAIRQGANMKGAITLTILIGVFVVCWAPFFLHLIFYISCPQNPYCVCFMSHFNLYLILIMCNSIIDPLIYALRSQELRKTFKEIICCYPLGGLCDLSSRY

What was measured:
Melanocortin receptor 4 [1] = molecular target: Melanocortin receptor 4 (Homo sapiens, UniProt P32245); experiment: Agonist activity at wild type human melanocortin-4 receptor expressed in HEK293 cells co-transfected with CRE/beta-galactosidase reporter gene assessed as stimulatory response after 6 hrs; type: functional, cell-based
Melanocortin receptor 4 [2] = molecular target: Melanocortin receptor 4 (Homo sapiens, UniProt P32245, L106P); experiment: Agonist activity at human melanocortin-4 receptor L106P mutant expressed in HEK293 cells co-transfected with CRE/beta-galactosidase reporter gene assessed as stimulatory response after 6 hrs; type: functional, cell-based

CC(=O)N[C@@H](Cc1cnc[nH]1)C(=O)N[C@H](Cc1ccccc1)C(=O)N[C@@H](CCCN=C(N)N)C(=O)N[C@@H](Cc1c[nH]c2ccccc12)C(N)=O
EC50 (Melanocortin receptor 4 [1]): 0.93 nM
EC50 (Melanocortin receptor 4 [2]): 191 nM
